Earlier results, collected in PubChem BioAssay AID977608 (Shanghai Institute of Organic Chemistry, 2014).

How the values were obtained:
Assay in all cases: literature IC50 values for PDB complexes, PDB-derived complexes (AID 977608)
human tankyrase 2 = conditions: PDB protein-ligand complexes, protein: human tankyrase 2, PDB entry 4bjc
Cationic trypsin = conditions: PDB protein-ligand complexes, protein: Cationic trypsin
[1] = molecular target: cell division protein kinase 2; conditions: PDB protein-ligand complexes
TANKYRASE-2 = conditions: PDB protein-ligand complexes, protein: TANKYRASE-2, PDB entry 4avu
[2] = molecular target: serine/threonine-protein kinase 6; conditions: PDB protein-ligand complexes
Renin = conditions: PDB protein-ligand complexes, protein: Renin, chain 3Q4B_A, PDB entry 3Q4B
[3] = molecular target: 3-phosphoinositide dependent protein kinase 1; conditions: PDB protein-ligand complexes
[4] = molecular target: heat shock protein 90 alpha; conditions: PDB protein-ligand complexes, protein: heat shock protein 90 alpha
thrombin light chain = conditions: PDB protein-ligand complexes, protein: thrombin light chain, chain 1WAY_B, PDB entry 1WAY
acetylcholinesterase = conditions: PDB protein-ligand complexes, protein: acetylcholinesterase
[5] = molecular target: DUAL SPECIFICITY MITOGEN-ACTIVATED PROTEIN KINASE KINASE 1, human MEK1; conditions: PDB protein-ligand complexes, protein: DUAL SPECIFICITY MITOGEN-ACTIVATED PROTEIN KINASE KINASE 1, human MEK1, chain 4AN2_A, PDB entry 4AN2
[6] = molecular target: LYSINE-SPECIFIC DEMETHYLASE 4A, JMJD2A; conditions: PDB protein-ligand complexes, protein: LYSINE-SPECIFIC DEMETHYLASE 4A, JMJD2A, PDB entry 4bis
HIV-1 IN core domain = conditions: PDB protein-ligand complexes, protein: HIV-1 IN core domain, chain 3LPU_A, PDB entry 3LPU
[7] = molecular target: phosphatidylinositol 3-kinase (PI3K), p110alpha; conditions: PDB protein-ligand complexes, protein: phosphatidylinositol 3-kinase (PI3K), p110alpha, PDB entry 4l23
[8] = molecular target: Vascular endothelial growth factor receptor 2, VEGFR2 kinase domain; conditions: PDB protein-ligand complexes, protein: Vascular endothelial growth factor receptor 2, VEGFR2 kinase domain, chain 3VID_A, PDB entry 3VID
[9] = molecular target: catalytic domain of PDE10A; conditions: PDB protein-ligand complexes, protein: catalytic domain of PDE10A, PDB entry 3wym
[10] = molecular target: Macrophage metalloelastase; conditions: PDB protein-ligand complexes, protein: Macrophage metalloelastase, chain 2W0D_A, PDB entry 2W0D
[11] = molecular target: TYROSINE-PROTEIN KINASE JAK2; conditions: PDB protein-ligand complexes, protein: TYROSINE-PROTEIN KINASE JAK2, chain 2XA4_A, PDB entry 2XA4
hiv-1 protease = conditions: PDB protein-ligand complexes, protein: hiv-1 protease, chain 4PHV_A,4PHV_B, PDB entry 4PHV
HCV NS5B polymerase = conditions: PDB protein-ligand complexes, protein: HCV NS5B polymerase, PDB entry 4gmc
adenylate cyclase = conditions: PDB protein-ligand complexes, protein: adenylate cyclase, chain 2BW7_A,2BW7_B, PDB entry 2BW7
[12] = molecular target: Proto-oncogene tyrosine-protein kinase Src; conditions: PDB protein-ligand complexes, protein: Proto-oncogene tyrosine-protein kinase Src, chain 3EL8_A, PDB entry 3EL8
[13] = molecular target: glycogen synthase kinase-3 beta; conditions: PDB protein-ligand complexes, protein: glycogen synthase kinase-3 beta, chain 1UV5_A, PDB entry 1UV5
collagenase 3 (mmp-13) = conditions: PDB protein-ligand complexes, protein: collagenase 3 (mmp-13), chain 1YOU_A, PDB entry 1YOU
Glr4197 protein?GLIC = conditions: PDB protein-ligand complexes, protein: Glr4197 protein?GLIC, chain 3P50_A, PDB entry 3P50
Tankyrase-1 = conditions: PDB protein-ligand complexes, protein: Tankyrase-1, PDB entry 4n4v

SMILES: CNCc1ccc(-c2[nH]c3cc(F)cc4c3c2CCNC4=O)cc1
- IC50 (human tankyrase 2): 14 nM

SMILES: NCCc1cnc[nH]1
- IC50 (Cationic trypsin; chain 3RXH_A, PDB entry 3RXH): 15.7 mM

SMILES: Cc1nc(C)c(-c2ccnc(N)n2)s1
- IC50 ([1]; protein: cell division protein kinase 2, chain 2C5O_A, PDB entry 2C5O): 6.5 µM

SMILES: O=c1[nH]c2ccccc2c2ccccc12
- IC50 (TANKYRASE-2): 14 nM

SMILES: CO[C@@H](C(=O)N1Cc2[nH]nc(NC(=O)c3ccc(N4CCN(C)CC4)cc3)c2C1)c1ccccc1
- IC50 ([2]; protein: serine/threonine-protein kinase 6, chain 2J50_A, PDB entry 2J50): 13 nM

SMILES: CN[C@H](CNC(=O)N1CCC[C@@H]([C@@H](OCCNC(=O)OC)c2cccc(Cl)c2)C1)C[C@H]1CCCOC1
- IC50 (Renin): 0.47 nM

SMILES: Cn1cc(C2=C(c3cn(CCCN)c4ccccc34)C(=O)NC2=O)c2ccccc21
- IC50 ([3]; protein: 3-phosphoinositide dependent protein kinase 1, chain 1UVR_A, PDB entry 1UVR): 1000 nM

SMILES: O=S(=O)(Nc1ccc(O)c(-c2c(O)ccc3ccccc23)c1)c1cc(Cl)ccc1Cl
- IC50 ([4]; chain 2BZ5_A, PDB entry 2BZ5): 700 nM

SMILES: Clc1ccc(-c2cc(C3CCNCC3)[nH]n2)cc1
- IC50 (thrombin light chain): 400 µM

SMILES: c1ccc2c(NCCCCCNc3c4c(nc5ccccc35)CCCC4)c3c(nc2c1)CCCC3
- IC50 (acetylcholinesterase; chain 2CMF_A, PDB entry 2CMF): 28 nM

SMILES: Clc1cccc(Nc2nc(OCC3CCCCC3)c3[nH]cnc3n2)c1
- IC50 ([1]; protein: cell division protein kinase 2, chain 1H1R_A, PDB entry 1H1R): 2.3 µM

SMILES: CC(=O)N[C@@H](CCCN=C(N)N)C(=O)N[C@@H](CCCN=C(N)N)C(=O)N[C@@H](CC(C)C)C(=O)N[C@@H](CC(N)=O)C(=O)N[C@@H](Cc1cccc(Cl)c1)C(N)=O
- IC50 ([1]; protein: cell division protein kinase 2, chain 1OKW_B, PDB entry 1OKW): 5.6 µM

SMILES: CS(=O)(=O)c1ccc(CN2CCN(c3cn[nH]c3-c3cc(Cl)c(O)cc3O)CC2)cc1
- IC50 ([4]; chain 2CCU_A, PDB entry 2CCU): 740 nM

SMILES: Cc1nc(N)sc1-c1ccnc(Nc2ccc(N3CCOCC3)cc2)n1
- IC50 ([1]; protein: cell division protein kinase 2, chain 2UUE_A, PDB entry 2UUE): 0.74 µM

SMILES: NS(=O)(=O)c1cccc(Nc2nc(OCC3CCCCC3)c3[nH]cnc3n2)c1
- IC50 ([1]; protein: cell division protein kinase 2, chain 1OIU_A, PDB entry 1OIU): 0.21 µM

SMILES: O=C(c1ccc(F)c(F)c1Nc1ccc(I)cc1F)N1CC(O)([C@@H]2CCCCN2)C1
- IC50 [5]: 0.9 nM

SMILES: O=C(O)c1ccnc2c(O)cccc12
- IC50 [6]: 1400 nM

SMILES: CCC[C@H](C(=O)O)c1c(C)nc2ccc(Cl)cc2c1-c1ccccc1
- IC50 (HIV-1 IN core domain): 1370 nM

SMILES: CN1CCN(c2ccc(C(=O)Nc3n[nH]c4c3CN(C(=O)Cc3cccs3)C4)cc2)CC1
- IC50 ([2]; protein: serine/threonine-protein kinase 6, chain 2J4Z_A, PDB entry 2J4Z): 65 nM

SMILES: Oc1cccc(-c2nc(N3CCOCC3)c3oc4ncccc4c3n2)c1
- IC50 [7]: 17.9 nM

SMILES: c1ccc2c3c([nH]c2c1)-c1[nH]ncc1CCC3
- IC50 [8]: 620 nM

SMILES: COc1ccc2c3c1O[C@H]1C[C@@H](O)C=C[C@@]31CC[N+](CCCCCCCCN1C(=O)c3ccccc3C1=O)=C2
- IC50 (acetylcholinesterase; chain 1W4L_A, PDB entry 1W4L): 4 nM

SMILES: COc1cn(-c2ccc(-n3cccn3)cc2F)nc(-c2ccnn2-c2ccccc2)c1=O
- IC50 [9]: 0.3 nM

SMILES: CN(C)C[C@@H](O)COc1ccc(Nc2ncc(Br)c(Nc3ccccc3)n2)cc1
- IC50 ([1]; protein: cell division protein kinase 2, chain 1H08_A, PDB entry 1H08): 28 µM

SMILES: Nc1ccncc1
- IC50 (Cationic trypsin; chain 3RXF_A, PDB entry 3RXF): 2.5 mM

SMILES: COc1ccc(S(=O)(=O)N(Cc2cccnc2)[C@@H](C(=O)NO)C(C)C)cc1
- IC50 [10]: 2 nM

SMILES: Cc1cc(Nc2nc(N[C@@H](C)c3ncc(F)cn3)ncc2Cl)n[nH]1
- IC50 [11]: 3 nM

SMILES: NC1CCC(O)CC1 (stereo unspecified)
- IC50 (Cationic trypsin; chain 3RXG_A, PDB entry 3RXG): 7.1 mM

SMILES: NCCc1c[nH]c2ccccc12
- IC50 (Cationic trypsin; chain 3ATM_A, PDB entry 3ATM): 0.873 mM
- IC50 (Cationic trypsin; chain 3RXI_A, PDB entry 3RXI): 0.873 mM

SMILES: CC(C)C[C@H](NC(=O)[C@H](CCCN=C(N)N)NC(=O)[C@@H](N)CCCN=C(N)N)C(=O)N[C@@H](CC(N)=O)C(=O)N[C@@H](Cc1ccc(F)cc1)C(N)=O
- IC50 ([1]; protein: cell division protein kinase 2, chain 1OL2_B, PDB entry 1OL2): 0.53 µM

SMILES: CN[C@@H]1C[C@H]2O[C@@](C)([C@@H]1OC)n1c3ccccc3c3c4c(c5c6ccccc6n2c5c31)C(=O)N[C@@H]4O
- IC50 ([3]; protein: 3-phosphoinositide dependent protein kinase 1, chain 1OKZ_A, PDB entry 1OKZ): 5 nM

SMILES: CC(=O)N[C@@H](CCCN=C(N)N)C(=O)N[C@H]1CCCCNC(=O)CNC(=O)[C@H](Cc2ccccc2)NC(=O)[C@H](CC(C)C)NC1=O
- IC50 ([1]; protein: cell division protein kinase 2, chain 1URC_B, PDB entry 1URC): 19.2 µM

SMILES: O=C(N[C@H]1c2ccccc2C[C@H]1O)[C@H](Cc1ccccc1)CC(O)C[C@@H](Cc1ccccc1)C(=O)N[C@H]1c2ccccc2C[C@H]1O
- IC50 (hiv-1 protease): 0.67 nM

SMILES: O=C(NS(=O)(=O)c1ccccc1)c1ccc2c(C3CCCCC3)c(-c3ccoc3)n(CC(=O)N3CCOCC3)c2c1
- IC50 (HCV NS5B polymerase): 18 nM

SMILES: C[C@]12CC[C@@H]3c4cc(O)c(O)cc4CC[C@H]3[C@@H]1CC[C@@H]2O
- IC50 (adenylate cyclase): 2000 nM

SMILES: CC(C)n1nc(-c2ccc(NC(=O)Nc3cccc(C(F)(F)F)c3)cc2)c2c(N)ncnc21
- IC50 [12]: 25 nM

SMILES: O=Nc1c(-c2c(O)[nH]c3cc(Br)ccc23)[nH]c2ccccc12
- IC50 [13]: 5 nM

SMILES: CCOCCC1(Oc2ccc(Oc3ccc(F)cc3)cc2)C(=O)NC(=O)NC1=O
- IC50 (collagenase 3 (mmp-13)): 0.87 nM

SMILES: CC(C)c1cccc(C(C)C)c1O
- IC50 (Glr4197 protein?GLIC): 24 µM

SMILES: CC1(C)OC(=O)N(C2CCC(c3cnc(N)c(-c4ncccn4)c3)CC2)[C@H]1c1ccccc1 (stereo partly specified)
- IC50 (Tankyrase-1): 2 nM
